scFv variants of Ab-14 (light chain) against a SARS-CoV-2 spike peptide

Data: MIT Lincoln Laboratory AlphaSeq set, Li et al. 2023, doi:10.1038/s41467-023-39022-2, as distributed in FLAb.

Antigen: PDVDLGDISGINAS, a 14-residue peptide of the SARS-CoV-2 spike HR2 region.

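The starting antibody came from a phage panning campaign against this peptide. The variants were designed computationally from a first round of random CDR variants and then made and measured. Group labels follow the data file (Ctrl: baseline library sampled from a position-specific scoring matrix, with some repeated check sequences; Rand: our label for a block that the file lists under HC and that is probably the random mutants of the ten best first-round binders; En: ensemble of fine-tuned language models; GP: Gaussian process model; HC: hill climbing; Gen: genetic algorithm; Gibbs: Gibbs sampling; a sequence that several methods proposed may carry one label only). The assay is AlphaSeq: two haploid yeast populations carry antibody and antigen on their surface. Binding brings cells together so that they mate, and sequencing counts the barcode pairs among the diploids. A regression on co-assayed BCL2-family reference pairs converts the normalised counts of each replicate to an apparent Kd. There are six technical replicates.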

Parent: Ab-14, a human scFv built as VH, three GGGGS repeats, VL. Only the CDRs of the light chain vary.
VH: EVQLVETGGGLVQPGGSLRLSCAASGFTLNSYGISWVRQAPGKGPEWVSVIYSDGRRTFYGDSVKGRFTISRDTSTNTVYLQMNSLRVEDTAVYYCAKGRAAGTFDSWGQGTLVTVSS
VL: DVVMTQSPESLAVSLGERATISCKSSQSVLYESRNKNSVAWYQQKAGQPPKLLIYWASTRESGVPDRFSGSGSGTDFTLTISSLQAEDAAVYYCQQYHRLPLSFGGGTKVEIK

The parent's light chain CDRs are KSSQSVLYESRNKNSVA, WASTRES, QQYHRLPLS; each variant's own CDRs replace them letter for letter. Values are log10 of the apparent Kd in nM; lower means stronger binding. Averages over replicates are reported, and they cover detected replicates only. An entry "nd" has no value in the source: the pair was not observed among the diploids in any replicate. This suggests poor binding but is not conclusive.

log10 Kd (nM), mean	replicates with signal	control signals	CDR-L1	CDR-L2	CDR-L3	group
-0.07	6 of 6	1 of 18	NVDISQNTNYNHKANVA	GHDERVG	QQYSRLPLS	En_Gibbs
1.22	3 of 6	0 of 18	KIGATLNFLEHKQNNVA	DLVMREN	QQYHRLPLS	En_Gen
nd	0 of 6	0 of 18	KSSQSVLYESRNKNIVA	DASTREN	QQYHRDPLS	Ctrl
0.40	6 of 6	1 of 18	KQSQSVLYESRNKNAVA	DASTRES	QAYHWLPLS	GP_HC
0.19	6 of 6	1 of 18	KMQQSEGMESRNKNSVA	HASLRLE	QQYHRLPLS	GP_Gibbs
0.16	6 of 6	0 of 18	KLSQSWLYESRNKNNVA	HASQRES	QQYHRLPLS	GP_Gen
0.85	5 of 6	0 of 18	KSSQTVLYESRNKNSVA	SASTRES	QQYHRLPLE	Ctrl
2.63	1 of 6	0 of 18	QLSMMEQHMGDRMHNVA	DTNVAKM	QDYFRLPLM	En_Gibbs
2.27	4 of 6	1 of 18	RIMYEYDSSVDKYNAVA	QAHIRAQ	QFYNRLPLS	En_Gibbs
-0.19	6 of 6	0 of 18	KLPQSTLYESRNKNSVA	NASTREE	QQYHRLPLS	GP_Gen
0.18	6 of 6	0 of 18	KVSMSWLYESRNKNSVA	NASTRES	QQYHRLPLS	GP_Gen
0.82	6 of 6	0 of 18	KWFQSVLLESMLVNSVA	NASQRED	QQYHRLPLS	GP_Gibbs
1.18	5 of 6	0 of 18	KISQMVRVGSTHGNSIA	EEATRAK	QQYHRLPLA	En_Gen
1.63	6 of 6	3 of 18	KVSEFMRGLMSKKDSIA	DNTTRNN	QQYDRLPLS	En_Gen
-0.13	6 of 6	1 of 18	KLSQSWLYESRNSKSVA	DASTRLS	QQYHRLPLS	GP_Gibbs
-0.18	6 of 6	2 of 18	KLSGSHLYESRNKNSVA	GASTRES	QQYHRLPLS	GP_Gen
1.71	5 of 6	0 of 18	ILSQMMLTAGNKHSSVA	QANNREN	QQYHRLPLS	En_HC
1.50	6 of 6	1 of 18	KISQSVLYESRNKGSVA	WASTRES	QQYHRLPLS	Ctrl
nd	0 of 6	0 of 18	KLSVSYYFEQLEKNSIA	ENSTREK	QHYHRLPLS	En_HC
1.52	6 of 6	1 of 18	KSSQSVLYESRNKNSVA	WASTREY	QQYHRLPLS	Ctrl
-0.06	6 of 6	0 of 18	KFSQSVLYESRLSNSVA	NASTRES	QQYHRLPLS	GP_HC
-0.39	6 of 6	0 of 18	KLLQSVLYESRNVNSVA	HASTRED	QQYHRLPLS	GP_HC
-0.41	6 of 6	2 of 18	KVRQSTLYESRNKNSVA	NASTRES	QQYHMLPLS	GP_HC
-0.07	6 of 6	0 of 18	KVSQWVLYESRTKNSVA	NASTRES	QQYHRLPLS	GP_HC
0.40	6 of 6	0 of 18	HISIKLPGNWYMMDSVA	HSERRAE	QQYARLPLG	En_Gibbs
0.19	6 of 6	1 of 18	KFSQWVLYESGTKNSVA	NASTRES	QQYHRLPLS	GP_HC
0.20	6 of 6	0 of 18	KSSQSVIYESSNKNSVA	DASTRES	QQYHRLPLS	Ctrl
0.06	6 of 6	0 of 18	KLDWSVMLWSRNKNSVA	QASTRMS	QDYHRLPLS	GP_Gibbs
2.13	5 of 6	0 of 18	HVSEMIMAQSKMRNSVA	ENSTREA	QQYDRLPLS	En_HC
1.49	6 of 6	0 of 18	MFSQLFYTGSRTKNAVA	QASTREN	QQYHRLPLS	En_HC
2.25	4 of 6	0 of 18	RISIPMDYYMENRSSIA	EMTVKEM	QQYQKLPLA	En_Gibbs
0.01	6 of 6	0 of 18	KVSQSDLYESRNKNAVA	NASTRES	QQYHRLPLS	GP_Gen
0.00	6 of 6	0 of 18	KVSQEMLYESRNANSVA	NASQREE	QQYHRLPLS	GP_Gibbs
-0.19	6 of 6	0 of 18	KISQMFYYESINKNNVA	QKSTREE	QDYHRLPLS	En_HC
nd	0 of 6	0 of 18	MISQVMNTLTRHGNNVA	DLEERER	QQYFRLPLS	En_Gen
nd	0 of 6	0 of 18	MFSQLTYTGSRMRNAVA	QASTREN	QQYHHLPLS	En_HC
-0.55	6 of 6	2 of 18	KLGDMVHTESRNKNSIA	DMRTRES	QQYFRLPLS	En_HC
0.46	6 of 6	0 of 18	HLSDSVLYESRNDNSVA	NASTRES	QQYHRLPLN	GP_HC
0.41	6 of 6	2 of 18	QVQYHPGESLRHTNSIA	DVNIKDM	QQYSRLPLS	En_Gibbs
-0.04	6 of 6	1 of 18	TISDVMGHMSKQTNNVA	DMDTRGE	QQYNRLPLS	En_Gen
2.14	6 of 6	1 of 18	KSSQSVLYESRHKNSVA	WGSTRMS	QQYHRLPLS	Ctrl
0.56	6 of 6	0 of 18	KVSQSWLMESRNKNSVA	EASTRSS	QQYHRLPLS	GP_HC
0.20	6 of 6	1 of 18	KSLQSWLYESRNKNSVA	GASTREQ	QQYHRLPLS	GP_HC
0.37	6 of 6	1 of 18	KLSQSMLYESRNDNSVA	QASTRES	QDYHRLPLM	GP_Gibbs
1.88	6 of 6	0 of 18	KHSQSVLLENRNKNSVA	RASTREC	QQYHHLPLF	Ctrl
0.27	6 of 6	0 of 18	TISMVMNHMTREKNNVA	NMDMREQ	QQYDRLPLS	En_Gen
1.69	2 of 6	1 of 18	HLGLATMLEEYVRNSVA	NNSTREE	QQYDRLPLS	En_Gen
0.54	6 of 6	1 of 18	MVQQLYNMGTFAINSVA	QASQRNA	QQYDRLPLI	En_Gen
1.32	6 of 6	1 of 18	HIQSESYHFGKDHQSMA	DAHCKAA	QQYFRLPLM	En_Gibbs
1.25	2 of 6	0 of 18	MLGDVAHGSSRKENSVA	DNDTRES	QQYDRLPLS	En_Gen
-0.24	6 of 6	1 of 18	KLSQSMPYESRNKNSVA	NASQRES	QQYHRLPLS	GP_Gen
1.20	4 of 6	0 of 18	KISQVFMMTGKLKNSVA	NAYTRVQ	QQYHRLPLS	En_HC
0.33	6 of 6	0 of 18	KLSMITGHSLMSKNNVA	EMETREN	QQYDRLPLS	En_Gen
1.72	4 of 6	1 of 18	KSSQSVLYESRNKKSVA	YASTRES	QQYHRLPLS	Ctrl
1.68	5 of 6	1 of 18	HSSPSYYYDSRNKNHVA	DATTRES	QQYHRLPLH	En_Gibbs
-0.40	6 of 6	0 of 18	KLSQSWLYESRNKNNVA	DASQRES	QQYHRLPLS	GP_Gen
-0.13	6 of 6	1 of 18	KVQQSGLYESRNKNSVA	NASTRES	QQYHRLPLS	GP_Gen
1.80	6 of 6	3 of 18	KSSQSTLQESRNKNSVA	WASTRIS	QQYHRLPLS	Ctrl
1.90	6 of 6	0 of 18	MISQLFMYGSRNYNSIA	QAETREK	QQYDRLPLI	En_HC
-0.14	6 of 6	0 of 18	KFSQSVLYESRNKNSVA	NASTREV	QQYHRLPLS	GP_HC
0.98	6 of 6	0 of 18	KQSQSVLYESRNKTSVA	DASTRES	QQYHRLPLS	Rand
0.93	6 of 6	5 of 18	HISQMVSYGSCMKNNVA	QVSTREE	QQYHRLPLS	En_HC
0.62	6 of 6	0 of 18	MLSLNLHDMDANMNNVA	EMNKLTA	QDYHRLPLH	En_Gibbs
0.94	6 of 6	1 of 18	MLSQTVDYNYTAGNSVA	EVTEKCN	QQYKRLPLS	En_Gibbs
0.72	6 of 6	2 of 18	KVMQSYLGEMRNCNSVA	NASTRES	QQYHRLPLS	GP_Gibbs
1.21	3 of 6	0 of 18	MISQVLNTLTRTGNNVA	DLQERED	QQYFRLPLS	En_Gen
0.44	6 of 6	1 of 18	QMKASLLQGIYRQDSVA	SSDIRAL	QQYHHLPLS	En_Gibbs
0.03	6 of 6	2 of 18	LVSQQELYEQRNKNSVA	DASQRLS	QQYHRLPLS	GP_Gibbs
1.81	6 of 6	2 of 18	HMSMLTLQGMRHKNSVA	QMTTREN	QQYDHLPLS	En_Gen
0.24	6 of 6	0 of 18	KVSQLQDYESRNKNSVA	NASQREQ	QQYHRLPLS	GP_Gibbs
1.11	6 of 6	0 of 18	KSSQNVLYESENKNSVA	WASTRES	QQYHRLPLS	Ctrl
1.84	5 of 6	0 of 18	KYSPSVWYESRNKNSVA	WASTRES	QQYHRLPLS	Ctrl
0.49	6 of 6	1 of 18	KSPFSVYYGDRNKNSVA	SASTRES	QQYHRLPLS	GP_Gibbs
1.21	5 of 6	1 of 18	HISQSFMTESVWRNNVA	HQSTREQ	QQYDRLPFS	En_HC
-0.53	6 of 6	1 of 18	KLSQSVLYEDRNKNSVA	SASTRES	QQYHRLPLS	GP_Gen
2.41	2 of 6	0 of 18	KISQMVLYESENKNSVA	WASTHES	QQYHRLPLS	Ctrl

A selection of 12 entries from above:

CDR-L1	CDR-L2	CDR-L3	group	log10 Kd (nM), mean	replicates with signal	control signals
KSSQSVLYESRNKNIVA	DASTREN	QQYHRDPLS	Ctrl	nd	0 of 6	0 of 18
MFSQLTYTGSRMRNAVA	QASTREN	QQYHHLPLS	En_HC	nd	0 of 6	0 of 18
KSSQSVLYESRNKKSVA	YASTRES	QQYHRLPLS	Ctrl	1.72	4 of 6	1 of 18
KLSQSMPYESRNKNSVA	NASQRES	QQYHRLPLS	GP_Gen	-0.24	6 of 6	1 of 18
KLSQSWLYESRNKNNVA	HASQRES	QQYHRLPLS	GP_Gen	0.16	6 of 6	0 of 18
KVMQSYLGEMRNCNSVA	NASTRES	QQYHRLPLS	GP_Gibbs	0.72	6 of 6	2 of 18
KLSMITGHSLMSKNNVA	EMETREN	QQYDRLPLS	En_Gen	0.33	6 of 6	0 of 18
HISQSFMTESVWRNNVA	HQSTREQ	QQYDRLPFS	En_HC	1.21	5 of 6	1 of 18
HMSMLTLQGMRHKNSVA	QMTTREN	QQYDHLPLS	En_Gen	1.81	6 of 6	2 of 18
MISQLFMYGSRNYNSIA	QAETREK	QQYDRLPLI	En_HC	1.90	6 of 6	0 of 18
QLSMMEQHMGDRMHNVA	DTNVAKM	QDYFRLPLM	En_Gibbs	2.63	1 of 6	0 of 18
NVDISQNTNYNHKANVA	GHDERVG	QQYSRLPLS	En_Gibbs	-0.07	6 of 6	1 of 18

Values of this round are not directly comparable with the first-round values of the same sequences. As a blank, each scFv also met three strains without target: over all light chain designs, 4% of these pairings were detected, typically at 2.64 and seldom below 1.59. For each scFv, signals with the empty controls are counted beside the result. The parent sequence was in this pool as ten entries: three were never detected, three once, and four in most replicates, with averages from 0.34 to 2.37. The authors averaged sequences with at least three values out of six and counted those with two or fewer as poor binders.